Measured values from patent publication US7638119B2, “Method of diminishing the symptoms of neurodegenerative disease” (priority 2004, dated 2009).

System: Nrf2−/−, +/− and +/+ mice
Protocol: Mice were anesthetized with isoflurane. […] One minute after insertion of the Hamilton syringe, the solution was administered over 2 minutes and the needle was withdrawn 2 mm per minute. ARE-hPAP+ mice were injected similarly with 0.25M (1 μl), due to differences in background strain sensitivity.
Mice were euthanized with CO2 and perfused with 4% paraformaldehyde. Tissues were post-fixed overnight at 4° C. and cryoprotected in 30% sucrose/PBS. Using a cryostat (Leica), adjacent coronal 20 μm and 50 μm sections were taken for staining with Fluorojade-B and cresyl violet respectively through the entire striatum. […] Lesion size was quantified using the Cavieleri Estimator (Stereoinvestigator; Microbrightfield) on sections 200 μm apart. HPAP histochemistry was measured as previously described (Johnson, D. A., et al., supra, 2002).
Ten days post-injection mice were sacrified and lesion size was measured by cresyl violet staining (FIG. 4A).

O=C(O)CC(=O)O [malonate]
Mice with measurable lesion: Only one
